The values that follow come from publication PMC4460250, “Systems Pharmacology Dissecting Holistic Medicine for Treatment of Complex Diseases: An Example Using Cardiocerebrovascular Diseases Treated by TCM” (Evidence-based Complementary and Alternative Medicine : eCAM, 2015).

For the first series the following is noted: in vivo.
For the compound `Cc1nc2n(c(=O)c1CCN1CCC(c3noc4cc(F)ccc34)CC1)CCCC2` [Risperidone], the “Class(High: HIA value ≥0.7; Low: HIA value < 0.7)” value was “High (key: High: HIA value ≥0.7; Low: HIA value < 0.7)”.

The conditions of the next series: in vivo; cited from earlier work.
For the compound `ClC(Cl)Cl` [Chloroform], the “HIA(Human Intestinal Absorption)” value was 1.
Regarding `CCOc1ccc2c3c1O[C@H]1[C@@H](O)C=C[C@H]4[C@@H](C2)N(C)CC[C@@]341` [Ethylmorphine], the “HIA(Human Intestinal Absorption)” value was 0.77.
As for `CCN(CC)CCNC(=O)c1cc(Cl)c(N)cc1OC` [Metoclopramide], the “HIA(Human Intestinal Absorption)” value is given as 0.88.
With `Nc1cc(N2CCCCC2)nc(N)[n+]1[O-]` [Minoxidil], the “HIA(Human Intestinal Absorption)” value is on record as 0.98.
Turning to `CCN(CC)CCOC(=O)C(Cc1cccc2ccccc12)CC1CCCO1` (centres unmarked) [Nafronyl], the “HIA(Human Intestinal Absorption)” value is reported as 1.
Consider `Cc1nc2n(c(=O)c1CCN1CCC(c3noc4cc(F)ccc34)CC1)CCCC2` [Risperidone], for which the “HIA(Human Intestinal Absorption)” value was 0.97.
As to `CCOC(=O)[C@H](CCc1ccccc1)N[C@@H](C)C(=O)N1[C@H](C(=O)O)C[C@H]2CCCC[C@@H]21` [Trandolapril], the “HIA(Human Intestinal Absorption)” value is given as 0.5.
